Results reported in patent US12091650B2, “Development of spinal cord on a microfluidic chip” (EMULATE, INC., priority 2016, dated 2024).

Tested on: blood brain barrier (BBB) on-chip, iPS-derived brain endothelial cells
Assay: Barrier function test with human serum proteins (ELISA)
Assay type: in vitro ADME
Settings: FIG. 47, ELISA
Protocol: In some embodiments, methods for seeding cells on-chip are provided, as follows for one example: Day—1: Activate and Coat Chips, Day 0: Seed HBMECs, Astrocytes and Pericytes.; Day 1: Initiate flow of media @60 μl/hr. Bottom channel only or Top and bottom channels.; Day 2: Initiate permeability assay: Dextran+ Serum proteins+ Compounds of interest.; Day 3: End permeability assay. Collect media and freeze.; Day 4: Test permeability modulators/experimental stimuli Day 5: Repeat permeability assay.; Day 6: End permeability assay—Collect media and freeze. Fix or lyse chips.

Albumin: human albumin, serum protein used in barrier function test
diffusion / level in neuronal channel, from Vascular Channel to Neuronal Channel: Low diffusion
